Literature values in paper PMC4481117 (Molecular Pain, 2015).

System: opioid receptor
Parameters: method as in PMID 7642746, PMID 6207329, PMID 2844685
Settings: cited from earlier work
Text: Apart from their effects on κ-opioid receptors on neurons, Dyn A exerts numerous effects on leukocytes, particularly myeloid cells. […] In addition, Dyn A (residues 1–13) and Dyn A (residues 1–9) stimulate ...

For `C=CCN1CC[C@]23c4c5ccc(O)c4O[C@H]2C(=O)CC[C@@]3(O)[C@H]1C5` [naloxone], the “Block of phagocytosis, degranulation and chemotaxis by naloxone” value is given as “could not be blocked or were blocked partially”.
